Our source for the IC50 values is ChEMBL document CHEMBL1129962, “Nonsteroidal anti-inflammatory drugs as scaffolds for the design of 5-lipoxygenase inhibitors” (J Med Chem, 1997).

This test addresses T1, Polyunsaturated fatty acid 5-lipoxygenase (Rattus norvegicus, UniProt P12527).
T1 sequence (P12527 whole entry): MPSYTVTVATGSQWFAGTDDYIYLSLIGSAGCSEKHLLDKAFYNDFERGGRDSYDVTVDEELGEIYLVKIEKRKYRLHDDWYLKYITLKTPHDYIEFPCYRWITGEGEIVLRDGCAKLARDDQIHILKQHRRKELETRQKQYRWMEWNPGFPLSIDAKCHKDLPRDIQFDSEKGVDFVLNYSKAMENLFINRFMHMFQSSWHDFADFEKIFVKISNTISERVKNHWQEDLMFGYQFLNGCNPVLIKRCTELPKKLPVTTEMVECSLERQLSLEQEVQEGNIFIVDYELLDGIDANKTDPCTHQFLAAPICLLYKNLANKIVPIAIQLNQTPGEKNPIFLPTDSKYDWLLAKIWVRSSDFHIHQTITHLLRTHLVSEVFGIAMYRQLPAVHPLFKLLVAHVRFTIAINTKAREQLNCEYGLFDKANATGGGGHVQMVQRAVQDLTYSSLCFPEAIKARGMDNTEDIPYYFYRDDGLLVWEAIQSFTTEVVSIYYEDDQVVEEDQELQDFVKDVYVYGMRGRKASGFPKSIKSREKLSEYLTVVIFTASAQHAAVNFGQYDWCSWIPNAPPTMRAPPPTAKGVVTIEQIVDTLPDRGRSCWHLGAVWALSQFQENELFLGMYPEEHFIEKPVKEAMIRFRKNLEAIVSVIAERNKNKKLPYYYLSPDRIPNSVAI
As to the kind of experiment: Inhibitory activity against 5-lipoxygenase catalysis (5-LO) in sonicated rat basophilic leukemia cell lysate. The test is classed as functional.

In the case of `COc1ccc2cc([C@H](C)C(=O)O)ccc2c1` [NAPROXEN], inhibition was half-maximal at 17 µM (IC50).
With `COc1ccc2cc([C@H](C)NC(=O)NO)ccc2c1`, the IC50 came out at 4.8 µM. This IC50 is about 3.5-fold lower than that of the compound before.

Usually IC50 stands for the concentration that gives 50% inhibition. Low values mean higher potency, high ones lower potency.
